Experimental data from article PMC10573946, “Enhancing Giardicidal Activity and Aqueous Solubility through the Development of “RetroABZ”, a Regioisomer of Albendazole: In Vitro, In Vivo, and In Silico Studies” (International Journal of Molecular Sciences, 2023).

Key:
[1] = tested on: HaCaT (immortalized human keratinocytes); test: In vitro cytotoxic assay (CellTiter 96 AQueous One) in HaCaT; assay type: cell-based; conditions: CC50 HaCaT / IC50 G. lamblia
Description: (§1) The cytotoxic assay of RetroABZ was carried out in Huh-7 (human hepatocellular carcinoma cell line) cells acquired from ATCC (American Type Culture Collection, Manassas, VA, USA). We also included an immortalized human epidermal keratinocyte line (HaCaT) as a control of non-cancerous cells. The cells were cultured in a DMEM medium (Invitrogen, Thermo Fisher Scientific, Inc., Waltham, MA, USA), supplemented with 10% fetal bovine serum (SFB, Invitrogen) and 2 mM glutamine. All cultures were maintained under standard culture conditions (37 °C and 5% CO2). For the cytotoxic assessment in a 96-well plate, 5000 cells per well were planted. […] The cellular viability was next calculated utilizing the CellTiter 96® AQueous One Solution Cell Proliferation Assay kit (Promega, Madison, WI, USA), following the manufacturer’s instructions. The experiments were carried out in triplicate in separate experiments. The Prism 8.0 statistical tool (Graphpad Software Inc., La Jolla, CA, USA) was used to examine the data, and a regression analysis was used to obtain the IC50.

[2] = tested on: Huh-7 (human hepatocellular carcinoma cell line); test: In vitro cytotoxic assay (CellTiter 96 AQueous One) in Huh-7; assay type: cell-based; conditions: CC50 Huh-7 / IC50 G. lamblia
Description: as §1

SMILES: CCCSc1ccc2nc(NC(=O)OC)[nH]c2c1 [Albendazole]
- Selectivity Index CC50/IC50 HaCaT [1]: 603
- Selectivity Index CC50/IC50 Huh-7 [2]: 407
